# Where two headings read alike, the source gives them in different places.
# Legend:
# [1] = tested on: E. coli GW2100/pTJgfp (umuC'::gfp); assay: umuC'::gfp fusion fluorescence assay, 96 parallel cultures (Example 1); settings: nutrient broth, FIG. 2
# [2] = tested on: E. coli GW2100/pTJgfp (umuC'-gfp fusion); settings: for Mean fluorescence emission: 84 parallel cultures, 24 hours incubation
# [3] = tested on: arg-3 marker in E. coli strain GW2100/pTJgfp; assay: revertant colony assay, mutation from arg-3 to Arg+, with KS test (Example 2); settings: for Mean revertant colony numbers: 40 parallel cultures, 4 day plate incubation
substance,measurement,setting,value
N-methyl-N-nitro-N-nitrosoguanidine,fluorescence level compared with the 0 dose control,[1]; MNNG 0.1 μg/ml,no significant increase
same,fluorescence level compared with the 0 dose control,"[1]; MNNG 1.5, 3.5 and 7 μg/ml, stationary and logarithmic phase cells",dose-dependent increase
same,mutagenic activity by shift in variation and arithmetic mean of fluorescent emission,"[2]; 1.7 μl of MNNG, 24 parallel cultures, FIG. 9a",can be detected
same,"K.S statistic, fluorescence emission, mutagen versus the control",[2]; MNNG 0.1 μg/ml,3.94
same,Mean fluorescence emission,[2]; MNNG 0.1 μg/ml,10.82
same,"K.S statistic, fluorescence emission, mutagen versus the control",[2]; MNNG 3.5 μg/ml,6.48
same,Mean fluorescence emission,[2]; MNNG 3.5 μg/ml,19.39
same,mutagenic activity by shift in distribution of fluorescent output per culture,"[2]; MNNG 3.5 μg/ml, 84 replicate cultures, FIG. 11",clearly evident
same,mutagenic activity by shift in variation and arithmetic mean of revertant colony numbers,"[3]; 1.7 μl of MNNG, 24 parallel cultures, FIG. 9b",can be detected
same,"K.S statistic, revertant colony numbers, mutagen versus the control",[3]; MNNG 0.1 μg/ml,1.789
same,Mean revertant colony numbers,[3]; MNNG 0.1 μg/ml,8.05
same,"K.S statistic, revertant colony numbers, mutagen versus the control",[3]; MNNG 3.5 μg/ml,3.130
same,response in mean revertant colony numbers compared to zero exposure controls,"[3]; MNNG 3.5 μg/ml, 40 cultures, FIG. 7",positive response
same,Mean revertant colony numbers,[3]; MNNG 3.5 μg/ml,24.9

# Source: patent publication US6667153B1 (priority 2000, dated 2003)
